Results reported in US9629825B2, “Pharmaceutical composition comprising (1r,4r)-6′-fluoro-N,N-dimethyl-4-phenyl-4′,9′-dihydro-3′H-spiro[cyclohexane-1,1′-pyrano[3,4,b]indol]-4-amine and a gabapentinoid” (dated 2017).

Test system: male Sprague-Dawley rats with ligatures applied to the left L5/L6 spinal nerves (tactile allodynia at the ipsilateral paw)
Details: n = 10, Mean SEM, first 0.0316 μg/kg (hemicitrate), second 0.316 mg/kg, combination 0.0316 μg/kg+0.316 mg/kg (ratio 1:10,000)

CN(C)[C@]1(c2ccccc2)CC[C@]2(CC1)OCCc1c3cc(F)ccc3[nH]c12
% MPE (Maximum possible effect), withdrawal threshold of the ipsi-lateral hind paw (30 min. after i.v. administration): 20.8 % MPE and 20.8 ± 12.4 % MPE | % MPE (Maximum possible effect), withdrawal threshold of the ipsi-lateral hind paw (60 min. after i.v. administration): 8.3 ± 10.7 % MPE | % MPE (Maximum possible effect), withdrawal threshold of the ipsi-lateral hind paw (180 min. after i.v. administration): −1.3 ± 6.0 % MPE

Several values for one entry are separate records, joined by “and”; a condition that tells them apart may be missing. Identical values can stand only once. Like-named read-outs stand apart in the source and are kept apart here.
